The term IC50 denotes the concentration that gives 50% inhibition.

By UniProt entry, the sequences of proteins in these tests, tags left out. Residues count along the entry.
UniProt P08581, 25-1390 limits assumed: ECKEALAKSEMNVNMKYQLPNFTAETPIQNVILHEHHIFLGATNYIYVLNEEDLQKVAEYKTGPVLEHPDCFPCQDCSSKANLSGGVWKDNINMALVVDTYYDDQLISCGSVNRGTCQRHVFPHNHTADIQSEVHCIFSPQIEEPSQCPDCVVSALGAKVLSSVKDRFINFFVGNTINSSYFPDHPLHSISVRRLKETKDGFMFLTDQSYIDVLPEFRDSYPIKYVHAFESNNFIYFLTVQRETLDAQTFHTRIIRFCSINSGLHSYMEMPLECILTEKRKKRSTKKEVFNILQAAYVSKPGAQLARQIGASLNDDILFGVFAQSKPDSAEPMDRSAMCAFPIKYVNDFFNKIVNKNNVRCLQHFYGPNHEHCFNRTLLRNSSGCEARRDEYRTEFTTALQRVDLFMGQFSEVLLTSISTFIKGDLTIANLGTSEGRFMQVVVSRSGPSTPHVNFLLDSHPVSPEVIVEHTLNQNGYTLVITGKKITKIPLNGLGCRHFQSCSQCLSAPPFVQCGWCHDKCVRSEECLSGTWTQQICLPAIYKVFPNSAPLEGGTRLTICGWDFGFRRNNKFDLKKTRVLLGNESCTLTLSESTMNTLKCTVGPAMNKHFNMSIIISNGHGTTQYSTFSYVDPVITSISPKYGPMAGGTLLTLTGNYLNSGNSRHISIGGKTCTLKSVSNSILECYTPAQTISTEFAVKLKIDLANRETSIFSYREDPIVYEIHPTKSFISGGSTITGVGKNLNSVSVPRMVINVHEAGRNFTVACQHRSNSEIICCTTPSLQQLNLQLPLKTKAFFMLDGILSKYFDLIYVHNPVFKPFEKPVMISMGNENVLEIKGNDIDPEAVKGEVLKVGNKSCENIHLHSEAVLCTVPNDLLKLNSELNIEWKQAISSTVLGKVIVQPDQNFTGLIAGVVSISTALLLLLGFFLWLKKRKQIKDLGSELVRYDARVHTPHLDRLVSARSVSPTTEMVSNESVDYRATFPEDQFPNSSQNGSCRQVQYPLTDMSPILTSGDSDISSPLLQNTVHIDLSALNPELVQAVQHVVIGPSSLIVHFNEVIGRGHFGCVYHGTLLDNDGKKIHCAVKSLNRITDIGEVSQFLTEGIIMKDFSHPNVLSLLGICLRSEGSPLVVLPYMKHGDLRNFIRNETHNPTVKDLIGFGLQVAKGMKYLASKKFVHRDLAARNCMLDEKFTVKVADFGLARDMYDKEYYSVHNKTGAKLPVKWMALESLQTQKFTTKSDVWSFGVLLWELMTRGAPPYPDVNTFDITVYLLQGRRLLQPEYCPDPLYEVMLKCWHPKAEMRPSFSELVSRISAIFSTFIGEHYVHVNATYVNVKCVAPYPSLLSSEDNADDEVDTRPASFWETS

In this test the target is cMet enzyme (Homo sapiens, UniProt P08581). The test is described as follows: cMet Homogeneous Time Resolved Fluorescence (HTRF) in vitro assay. To be noted: read-out: c-Met IC50 (HTRF); relative IC50. The source says: This assay is based on HTRF technology and it is used to detect the phosphorylation of biotin labeled tyrosine peptide by cMet enzyme. After the reaction is completed, XL665 labeled streptavidin is used to recognize the biotin unit and a Europium (Eu3+) labeled anti-phospho-tyrosine antibody is used to recognize the phosphorylated tyrosine. The detection process relies on the transfer of energy between the excited Eu3+ and the XL665 labeled streptavidin. The aim of this protocol is to calculate the ability of test compounds to inhibit the phosphorylation of the product of this reaction and calculate their relative IC50 values.
A reference compound, if desired, may be prepared as a 1 mM stock solution in 100% DMSO and test compounds are prepared as 10 mM stock solutions in 100% DMSO. 1 mM reference compound and 10 mM test compounds are pre-diluted to 8 μM and 80 μM 10% DMSO solutions in a 96-well dilution plate. Compounds are serially diluted (1:3) using Tecan Freedom EVO 200 and 10-point dilution curves are generated for each of the compounds tested. 10 μL of serially diluted compounds are transferred to a 96-well assay plate using Temo (Tecan). […] The assay plate is incubated at RT for 60 min before reading the fluorescence signals at 620 nm emission and 665 nm […] in a Victor3 instrument (PerkinElmer Corporation). […]

Regarding `Cn1cc(-c2ccc3nnc(Sc4ccc5ncn(C)c5c4)n3n2)cn1`, the IC50 stood at 15 nM.

The values are drawn from patent publication US8268836B2, “Compound useful as a c-Met inhibitor” (Eli Lilly and Company, priority 2010, dated 2012).
